According to PubChem BioAssay (NCI):
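Compound exposure: 48 hours, 5 concentrations, 96-well plates. Abbreviation: GI50, concentration required for 50% inhibition of growth. TGI is the concentration that stops growth completely.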

Legend:
Test in all cases: growth of human tumour cells (NCI), 48 h
HOP-62 NSCLC = tested on: HOP-62 NSCLC
DU-145 prostate = tested on: DU-145 prostate
MDA-MB-231 breast = tested on: MDA-MB-231 breast
KM12 colon = tested on: KM12 colon
UACC-62 melanoma = tested on: UACC-62 melanoma
NCI-H23 lung = tested on: NCI-H23 lung
HS 578T breast = tested on: HS 578T breast
RPMI-8226 leukemia = tested on: RPMI-8226 leukemia
SW-620 colon = tested on: SW-620 colon
BT-549 breast = tested on: BT-549 breast
TK-10 renal = tested on: TK-10 renal
PC-3 prostate = tested on: PC-3 prostate
MDA-MB-435 = tested on: MDA-MB-435
OVCAR-8 ovarian = tested on: OVCAR-8 ovarian
CAKI-1 renal = tested on: CAKI-1 renal
M14 melanoma = tested on: M14 melanoma
SK-OV-3 ovarian = tested on: SK-OV-3 ovarian
ACHN renal = tested on: ACHN renal
OVCAR-5 ovarian = tested on: OVCAR-5 ovarian
T-47D breast = tested on: T-47D breast
U251 CNS = tested on: U251 CNS
NCI-H322M lung = tested on: NCI-H322M lung
SF-295 CNS = tested on: SF-295 CNS
COLO 205 colon = tested on: COLO 205 colon
NCI-H226 lung = tested on: NCI-H226 lung
SNB-19 CNS = tested on: SNB-19 CNS
NCI-H522 lung = tested on: NCI-H522 lung
HCT-15 colon = tested on: HCT-15 colon
NCI-H460 lung = tested on: NCI-H460 lung
A498 renal = tested on: A498 renal
RXF 393 renal = tested on: RXF 393 renal
HOP-92 NSCLC = tested on: HOP-92 NSCLC
K-562 leukemia = tested on: K-562 leukemia
SN12C renal = tested on: SN12C renal
NCI/ADR-RES ovarian = tested on: NCI/ADR-RES ovarian
UO-31 renal = tested on: UO-31 renal
786-0 renal = tested on: 786-0 renal
UACC-257 melanoma = tested on: UACC-257 melanoma
A549 NSCLC = tested on: A549 NSCLC
EKVX NSCLC = tested on: EKVX NSCLC
SK-MEL-5 melanoma = tested on: SK-MEL-5 melanoma
MALME-3M melanoma = tested on: MALME-3M melanoma
LOX IMVI melanoma = tested on: LOX IMVI melanoma
MDA-N = tested on: MDA-N
HT29 colon = tested on: HT29 colon
SK-MEL-2 melanoma = tested on: SK-MEL-2 melanoma
OVCAR-3 ovarian = tested on: OVCAR-3 ovarian
SK-MEL-28 melanoma = tested on: SK-MEL-28 melanoma
MCF7 breast = tested on: MCF7 breast
HCT-116 colon = tested on: HCT-116 colon
SF-268 CNS = tested on: SF-268 CNS
SNB-75 CNS = tested on: SNB-75 CNS
IGROV1 ovarian = tested on: IGROV1 ovarian
SF-539 CNS = tested on: SF-539 CNS
OVCAR-4 ovarian = tested on: OVCAR-4 ovarian

N1=C(c2nnc(-c3nn[nH]n3)nn2)NNN1
GI50 (HOP-62 NSCLC): > 100 µM | TGI (HOP-62 NSCLC): > 100 µM | GI50 (DU-145 prostate): > 100 µM | TGI (DU-145 prostate): > 100 µM | GI50 (MDA-MB-231 breast): > 100 µM | TGI (MDA-MB-231 breast): > 100 µM | GI50 (KM12 colon): > 100 µM | TGI (KM12 colon): > 100 µM | GI50 (UACC-62 melanoma): > 100 µM | TGI (UACC-62 melanoma): > 100 µM | GI50 (NCI-H23 lung): > 100 µM | TGI (NCI-H23 lung): > 100 µM | GI50 (HS 578T breast): > 100 µM | TGI (HS 578T breast): > 100 µM | GI50 (RPMI-8226 leukemia): > 100 µM | TGI (RPMI-8226 leukemia): > 100 µM | GI50 (SW-620 colon): > 100 µM | TGI (SW-620 colon): > 100 µM | GI50 (BT-549 breast): > 100 µM | TGI (BT-549 breast): > 100 µM | GI50 (TK-10 renal): > 100 µM | TGI (TK-10 renal): > 100 µM | GI50 (PC-3 prostate): > 100 µM | TGI (PC-3 prostate): > 100 µM | GI50 (MDA-MB-435): > 100 µM | TGI (MDA-MB-435): > 100 µM | GI50 (OVCAR-8 ovarian): > 100 µM | TGI (OVCAR-8 ovarian): > 100 µM | GI50 (CAKI-1 renal): > 100 µM | TGI (CAKI-1 renal): > 100 µM | GI50 (M14 melanoma): > 100 µM | TGI (M14 melanoma): > 100 µM | GI50 (SK-OV-3 ovarian): > 100 µM | TGI (SK-OV-3 ovarian): > 100 µM | GI50 (ACHN renal): > 100 µM | TGI (ACHN renal): > 100 µM | GI50 (OVCAR-5 ovarian): > 100 µM | TGI (OVCAR-5 ovarian): > 100 µM | GI50 (T-47D breast): > 100 µM | TGI (T-47D breast): > 100 µM | GI50 (U251 CNS): > 100 µM | TGI (U251 CNS): > 100 µM | GI50 (NCI-H322M lung): > 100 µM | TGI (NCI-H322M lung): > 100 µM | GI50 (SF-295 CNS): > 100 µM | TGI (SF-295 CNS): > 100 µM | GI50 (COLO 205 colon): > 100 µM | TGI (COLO 205 colon): > 100 µM | GI50 (NCI-H226 lung): > 100 µM | TGI (NCI-H226 lung): > 100 µM | GI50 (SNB-19 CNS): > 100 µM | TGI (SNB-19 CNS): > 100 µM | GI50 (NCI-H522 lung): > 100 µM | TGI (NCI-H522 lung): > 100 µM | GI50 (HCT-15 colon): > 100 µM | TGI (HCT-15 colon): > 100 µM | GI50 (NCI-H460 lung): > 100 µM | TGI (NCI-H460 lung): > 100 µM | GI50 (A498 renal): > 100 µM | TGI (A498 renal): > 100 µM | GI50 (RXF 393 renal): > 100 µM | TGI (RXF 393 renal): > 100 µM | GI50 (HOP-92 NSCLC): > 100 µM | TGI (HOP-92 NSCLC): > 100 µM | GI50 (K-562 leukemia): > 100 µM | TGI (K-562 leukemia): > 100 µM | GI50 (SN12C renal): > 100 µM | TGI (SN12C renal): > 100 µM | GI50 (NCI/ADR-RES ovarian): > 100 µM | TGI (NCI/ADR-RES ovarian): > 100 µM | GI50 (UO-31 renal): > 100 µM | TGI (UO-31 renal): > 100 µM | GI50 (786-0 renal): > 100 µM | TGI (786-0 renal): > 100 µM | GI50 (UACC-257 melanoma): > 100 µM | TGI (UACC-257 melanoma): > 100 µM | GI50 (A549 NSCLC): > 100 µM | TGI (A549 NSCLC): > 100 µM | GI50 (EKVX NSCLC): > 100 µM | TGI (EKVX NSCLC): > 100 µM | GI50 (SK-MEL-5 melanoma): > 100 µM | TGI (SK-MEL-5 melanoma): > 100 µM | GI50 (MALME-3M melanoma): > 100 µM | TGI (MALME-3M melanoma): > 100 µM | GI50 (LOX IMVI melanoma): 43.6 µM | TGI (LOX IMVI melanoma): > 100 µM | GI50 (MDA-N): > 100 µM | TGI (MDA-N): > 100 µM | GI50 (HT29 colon): > 100 µM | TGI (HT29 colon): > 100 µM | GI50 (SK-MEL-2 melanoma): > 100 µM | TGI (SK-MEL-2 melanoma): > 100 µM | GI50 (OVCAR-3 ovarian): > 100 µM | TGI (OVCAR-3 ovarian): > 100 µM | GI50 (SK-MEL-28 melanoma): > 100 µM | TGI (SK-MEL-28 melanoma): > 100 µM | GI50 (MCF7 breast): > 100 µM | TGI (MCF7 breast): > 100 µM | GI50 (HCT-116 colon): > 100 µM | TGI (HCT-116 colon): > 100 µM | GI50 (SF-268 CNS): > 100 µM | TGI (SF-268 CNS): > 100 µM | GI50 (SNB-75 CNS): > 100 µM | TGI (SNB-75 CNS): > 100 µM | GI50 (IGROV1 ovarian): > 100 µM | TGI (IGROV1 ovarian): > 100 µM | GI50 (SF-539 CNS): > 100 µM | TGI (SF-539 CNS): > 100 µM | GI50 (OVCAR-4 ovarian): > 100 µM | TGI (OVCAR-4 ovarian): > 100 µM
